# From article PMC8744557, “Engineering the Catalytic Properties of Two-Domain Laccase from Streptomyces griseoflavus Ac-993” (International Journal of Molecular Sciences, 2021)
# Protein sequences, listed by entry. Tags and fused reporters are not part of them. Residues count along the entry.
# UniProt A0A0M4FJ81, 40-322: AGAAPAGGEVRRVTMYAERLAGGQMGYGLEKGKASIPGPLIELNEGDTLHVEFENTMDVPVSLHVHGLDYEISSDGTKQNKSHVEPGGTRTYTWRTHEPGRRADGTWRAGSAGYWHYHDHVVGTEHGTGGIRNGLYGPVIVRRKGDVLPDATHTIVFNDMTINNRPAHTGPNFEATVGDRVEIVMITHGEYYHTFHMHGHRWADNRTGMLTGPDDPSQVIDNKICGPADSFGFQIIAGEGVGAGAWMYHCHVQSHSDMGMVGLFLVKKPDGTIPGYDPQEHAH
# Target: SgfSL (SgfSLwt) (Streptomyces griseoflavus, UniProt A0A0M4FJ81)
# Test: residual ABTS oxidation activity with inhibitor
# Conditions: 0.5 mM ABTS, optimal pH (4.0), 30 °C, 50 mM Britton-Robinson buffer
compound,measurement,value
[N-]=[N+]=N,The Residual Activity (%) in the Presence of 10 mM of NaN3,23 ± 1%
